In patent US20050137128 (published 2005):

Assays:
Test in all cases: other, fibril binding
Aβ1-40 fibril [1] = biological target: Aβ1-40 fibril (Homo sapiens)
Aβ1-40 fibril [2] = biological target: Aβ1-40 fibril (Homo sapiens); remark: listed apart in the source
Aβ1-40 fibril [3] = biological target: Aβ1-40 fibril (Homo sapiens); remark: listed apart in the source

Question: Which Kd (Aβ1-40 fibril [1]) does the source give for LFFVL (all D-residues, C-terminal methylamide) [PPI-1180] here?
Answer: 0.33 nM

Question: Which Kd (Aβ1-40 fibril [1]) does the source give for LVFFL (all D-residues, N,N-dimethyl, C-terminal amide) [PPI-1007] here?
Answer: 0.627 nM and 0.864 nM

Question: For LVFFA (all D-residues, C-terminal isopropylamide) [PPI-992], which Kd (Aβ1-40 fibril [1]) is on record?
Answer: 2.43 nM

Question: With LVF (all D-residues, C-terminal NH-NH-acetyl) [PPI-1133] as the binder, how does the Kd (Aβ1-40 fibril [2]) read?
Answer: 318 nM

Question: With LFFVL (all D-residues, pentafluoro-D-Phe at positions 2 and 3, C-terminal amide) [PPI-1328] as the binder, how does the Kd (Aβ1-40 fibril [2]) read?
Answer: 2.4 nM

Question: For LVFFL (all D-residues, C-terminal methylamide) [PPI-1179], which Kd (Aβ1-40 fibril [1]) is on record?
Answer: 0.604 nM

Question: With LVFFL (all D-residues, free acid) [PPI-1261] as the binder, how does the Kd (Aβ1-40 fibril [1]) read?
Answer: 11.2 nM

B1: PPI-1125 (peptide)
chain 1: LVF
chain 2: LVF
modifications: all D-residues, H-lvf-NH-NH-fvl-H, hydrazide-linked dimer
Question: How did the Kd (Aβ1-40 fibril [2]) turn out when B1 was run?
Answer: 1.27 nM and 1.34 nM

Question: For LVFFL (all D-residues, N-methyl, C-terminal amide) [PPI-1019], which Kd (Aβ1-40 fibril [2]) is on record?
Answer: 0.411 nM and 0.534 nM

Question: Which Kd (Aβ1-40 fibril [1]) does the source give for LVFFL (all D-residues, N-ethyl, C-terminal amide) [PPI-1022] here?
Answer: 0.15 nM

Question: How did the Kd (Aβ1-40 fibril [1]) turn out when LVFFL (all D-residues, N-propyl, C-terminal amide) [PPI-1025] was run?
Answer: 0.43 nM

Question: LVFFL (all D-residues, pentafluoro-D-Phe at position 4, C-terminal amide) [PPI-1303] was tested. Which Kd (Aβ1-40 fibril [2]) did it give?
Answer: 1.1 nM

Question: LVFFL (all D-residues, p-fluoro-D-Phe at position 4, C-terminal amide) [PPI-1302] was tested. Which Kd (Aβ1-40 fibril [2]) did it give?
Answer: 0.22 nM

Question: For LVFFL (all D-residues, p-fluoro-D-Phe at position 3, C-terminal amide) [PPI-1785], which Kd (Aβ1-40 fibril [3]) is on record?
Answer: 2.8 nM

Question: For IIFFI (all D-residues, C-terminal amide) [PPI-1040], which Kd (Aβ1-40 fibril [1]) is on record?
Answer: 0.408 nM

Question: With IVFFI (all D-residues, C-terminal amide) [PPI-1038] as the binder, how does the Kd (Aβ1-40 fibril [1]) read?
Answer: 0.652 nM

Question: For LFFVL (all D-residues, pentafluoro-D-Phe at position 3, C-terminal amide) [PPI-1320], which Kd (Aβ1-40 fibril [2]) is on record?
Answer: 1.4 nM

Question: How did the Kd (Aβ1-40 fibril [1]) turn out when GAFFVL (D-residues (Gly achiral), N-ethyl, C-terminal amide) [PPI-969] was run?
Answer: 1.13 nM

Question: Which Kd (Aβ1-40 fibril [1]) does the source give for LVFFL (all D-residues, C-terminal isopropylamide) [PPI-1093] here?
Answer: 1.02 nM

Question: Which Kd (Aβ1-40 fibril [1]) does the source give for GLFVL (D-residues (Gly achiral), N-ethyl, C-terminal amide; sequence as printed) [PPI-1018] here?
Answer: 0.701 nM

Question: How did the Kd (Aβ1-40 fibril [1]) turn out when GLVFFL (D-residues (Gly achiral), N,N-diethyl, C-terminal amide) [PPI-1028] was run?
Answer: 0.49 nM

Question: Which Kd (Aβ1-40 fibril [1]) does the source give for LVFFL (all D-residues, 1-piperidine-acetyl, C-terminal amide) [PPI-1088] here?
Answer: 3.4 nM

Question: For LVF (all D-residues, C-terminal hydrazide) [PPI-1155], which Kd (Aβ1-40 fibril [2]) is on record?
Answer: 124 nM

Question: How did the Kd (Aβ1-40 fibril [3]) turn out when LVFFL (all D-residues, C-terminal NH-CH2CH2-NH2) [PPI-1465] was run?
Answer: 3.6 nM

Question: Which Kd (Aβ1-40 fibril [3]) does the source give for LVFFL (all D-residues, N-methyl, p-fluoro-D-Phe at position 3, C-terminal amide) [PPI-1784] here?
Answer: 2.5 nM

Question: For GLVFFL (D-residues (Gly achiral), N-ethyl, C-terminal amide) [PPI-1017], which Kd (Aβ1-40 fibril [1]) is on record?
Answer: 0.389 nM

Question: GLVFFL (D-residues (Gly achiral), C-terminal amide) [PPI-1013] was tested. Which Kd (Aβ1-40 fibril [1]) did it give?
Answer: 0.247 nM

Question: LFFVL (all D-residues, 1-piperidine-acetyl, C-terminal amide) [PPI-1089] was tested. Which Kd (Aβ1-40 fibril [1]) did it give?
Answer: 0.57 nM

Question: For LFFVL (all D-residues, C-terminal isopropylamide) [PPI-1094], which Kd (Aβ1-40 fibril [1]) is on record?
Answer: 3.7 nM

Question: IVFFA (all D-residues, C-terminal amide) [PPI-1039] was tested. Which Kd (Aβ1-40 fibril [1]) did it give?
Answer: 2.44 nM

Question: For LFFVL (all D-residues, N-methyl, C-terminal amide) [PPI-1020], which Kd (Aβ1-40 fibril [1]) is on record?
Answer: 0.601 nM

Question: How did the Kd (Aβ1-40 fibril [2]) turn out when LKFVL (all D-residues, C-terminal amide) [PPI-1325] was run?
Answer: 1.4 nM

Question: How did the Kd (Aβ1-40 fibril [2]) turn out when LFFVL (all D-residues, p-fluoro-D-Phe at positions 2 and 3, C-terminal amide) [PPI-1327] was run?
Answer: 0.82 nM

Question: Which Kd (Aβ1-40 fibril [1]) does the source give for LFFVL (all D-residues, N,N-dimethyl, C-terminal amide) [PPI-1008] here?
Answer: 1.75 nM

Where “and” joins values, the source holds several entries; their conditions need not be identical. Identical values can stand only once. Like-named read-outs stand apart in the source and are kept apart here.
